The target in this assay is κOR (Homo sapiens, UniProt P41145). Kind of assay: PathHunter β-arrestin-2 recruitment assay. Format: cell-based. As to conditions: normalized to U50,488, ND = not detectable. A general note: Activated receptors often draw arrestin, which recruitment assays turn into a signal.

The chains behind the UniProt entries cited, without tags or fusion partners. Where a name states a change or a piece, a line headed by the entry shows the natural chain unless it says otherwise.
UniProt P41145: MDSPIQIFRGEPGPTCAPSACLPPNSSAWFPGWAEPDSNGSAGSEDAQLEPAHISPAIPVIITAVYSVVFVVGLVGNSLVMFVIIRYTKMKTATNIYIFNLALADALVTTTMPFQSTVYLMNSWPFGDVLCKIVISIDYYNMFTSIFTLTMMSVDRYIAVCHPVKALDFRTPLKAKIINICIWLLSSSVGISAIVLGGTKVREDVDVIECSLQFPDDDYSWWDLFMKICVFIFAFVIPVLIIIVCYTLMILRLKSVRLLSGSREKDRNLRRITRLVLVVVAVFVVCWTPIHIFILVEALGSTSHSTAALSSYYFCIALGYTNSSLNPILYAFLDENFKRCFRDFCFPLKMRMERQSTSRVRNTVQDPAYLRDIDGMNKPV

As for `CN(C(=O)Cc1ccc(Cl)c(Cl)c1)[C@@H]1CCCC[C@H]1N1CCCC1`, the “β-arrestin-2 α (efficacy)” value is recorded as 100.

(Values after paper PMC8596301 (Frontiers in Pharmacology, 2021).)
